Measurements taken from patent publication US10202350B2, “MCT4 inhibitors for treating disease” (Vettore, LLC, priority 2015, dated 2019).

The chains behind the UniProt entries cited, without tags or fusion partners. Where a name states a change or a piece, a line headed by the entry shows the natural chain unless it says otherwise.
UniProt O15427: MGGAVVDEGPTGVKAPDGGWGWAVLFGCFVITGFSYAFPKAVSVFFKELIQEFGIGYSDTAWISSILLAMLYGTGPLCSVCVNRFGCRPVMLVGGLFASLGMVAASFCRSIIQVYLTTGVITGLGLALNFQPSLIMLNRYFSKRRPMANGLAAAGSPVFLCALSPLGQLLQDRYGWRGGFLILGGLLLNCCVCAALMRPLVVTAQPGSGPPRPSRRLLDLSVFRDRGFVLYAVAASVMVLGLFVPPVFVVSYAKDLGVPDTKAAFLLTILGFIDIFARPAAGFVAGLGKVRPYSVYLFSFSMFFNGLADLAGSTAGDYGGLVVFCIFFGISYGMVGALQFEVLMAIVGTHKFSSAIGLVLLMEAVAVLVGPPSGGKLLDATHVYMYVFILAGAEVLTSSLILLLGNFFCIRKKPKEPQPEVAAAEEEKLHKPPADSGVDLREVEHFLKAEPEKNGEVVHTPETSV

Molecular target: MCT4 (Homo sapiens (Human), UniProt O15427)
Experiment: MCT4-mediated lactate transport in MDA-MB-231 breast cancer cells
Type: cell-based
Details: MDA-MB-231 cells, native MCT4; 50 mM L-lactate
Description: 10 μL of a 30 mM DMSO stock of BCECF-AM ester (Life Technologies) is added and the cells are incubated at 37° C. for 5 min. The cells are pelleted (300 g, 5 min), washed once with 1 mL Tyrode's Solution, pH 7.4, re-pelleted (300 g, 5 min), and resuspended in 1 mL Tyrode's Solution, pH 7.4.
2.5 μL BCECF-loaded cells, along with either 10 μL DMSO or 100×compound in DMSO, are added to 937.5 μL of Tyrode's Solution in a quartz 1.0 mL cuvette (PerkinElmer, B0631116). […] After establishing baseline BCECF fluorescence (around 10-20 s), 50 μL of 1 M sodium L-lactate (Sigma-Aldrich) is added to the cuvette (final concentration: 50 mM) and rapidly mixed. The time-dependent decrease in BCECF fluorescence (490/440 ratio) may be fit to an exponential decay curve (Prism GraphPad) to determine the rate of lactate transport.
Preparation of BCECF-loaded cells and lactate transport activity may be determined as described for Assay 1.

CC(C)(OCc1cc(Cc2ccccc2)n(Cc2ccccc2Cl)n1)C(=O)O [Example 77, 2-([5-Benzyl-1-[(2-chlorophenyl)methyl]-1H-pyrazol-3-yl]methoxy)-2-methylpropanoic Acid]
IC50: 340 nM
